Test results reported in patent US20100291179A1, “COMPOSITE BIOMATERIAL FOR CONTROLLED RELEASE OF ACTIVE INGREDIENTS” (NMI Naturwissenschaftliches und Medizinishes Institut an …, priority 2007, published 2010).

How the values were obtained:
[1] = BMP-2 bound via cyclopeptides to the matrix structure: activity and release from the support; conditions: bound via various cyclopeptides to the matrix structure
[2] = system: pluripotent mouse fibroblasts (MC3T3-E1); assay: BMP-2-doped gelatine supports stored in culture medium, then MC3T3-E1 alkaline phosphatase activity; assay type: cell-based; conditions: stored in cell culture medium under culturing conditions; ALP activity of MC3T3-E1
Description: In accordance with A), gelatine supports were doped with the growth factor bone morphogenetic protein 2 (BMP-2). The supports doped in this way were stored in cell culture medium under culturing conditions for various times. Subsequently, the supernatant of the culture medium was removed and a cell suspension with pluripotent mouse fibroblasts (MC3T3-E1) was added, which fibroblasts differentiate to osteoblasts after activation with BMP-2, and express alkaline phosphatase whose activity can be used as a measure of the stimulation by the growth factor.

Substance: BMP-2: growth factor bone morphogenetic protein 2
- activity of BMP-2 in the support [1]: retained its activity in the support
- time the growth factor was active in the gelatine support [2]: up to 28 days
